# Screens (PubChem)
# HDAC3 inhib: inhibitors of human histone deacetylase 3; AID 2718; inhibition, % at 8.3 µM; recombinant HDAC3, fluorogenic peptide/trypsin coupled, fluorescence; O15379; 320,000 compounds, 0.15% hits; in the data active = inhibition above about 26%, passing the limit was not always enough; inconclusive = no clear call, values can overlap the other calls
# MC4R antagonist: human MC4R antagonism in cAMP assay | P32245 | MC4R-expressing cells, MTII-stimulated cAMP, LANCE TR-FRET | inhibition, % at 6.5 µM | 360,000 compounds, 0.48% hits | AID 540295;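 active = inhibition above its plate's cutoff, the mean of tested wells on that plate plus 3 SD, cut at about 29% in these data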;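 note: 0% = Melanotan II alone and 100% = Melanotan II plus saturating MCL0020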
#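 system = U2OS cells with stable human MC4R expression | also added = Melanotan II challenge after compound preincubation | dosing = one concentration, 6.5 µM nominal | incubation = compound 30 min, challenge 1 h, detection 1 h | measured by = TR-FRET with Eu-cAMP and labeled anti-cAMP, 671 nm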
# MC4R ag barr: human MC4R agonism via beta-arrestin. 360,000 compounds, 0.98% hits. activation, % at 8.9 µM. P32245. U2OS MC4R beta-arrestin complementation, luminescence; percent of melanotan II response, DMSO zero. AID 540308;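 active = activation above a per-plate cutoff, the mean activation of sample wells on that plate plus 3 SD, cut at about 8% in these data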
# ALR H2O2 inh: inhibitors of human sulfhydryl oxidase ALR; P55789; purified ALR, DTT oxidation, H2O2 HRP-luminol luminescence; inhibition, % (test concentration not listed); actives 3.8% (n = 290,000); AID 485317;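 active = mean and each replicate at 75% or more; inconclusive = only one of the two met; inactive = neither met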;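 also: stock transfer was 7.5 nL into about 7.5 µL; 0% = neutral wells and 100% = wells with inactivated enzyme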
# NALP1 inh: blocks the NALP1 inflammasome reconstituted in yeast; S. cerevisiae NALP1/ASC/caspase-1 growth, X-gal OD620, 72 h; inhibition, % at 10 µM; 280,000 compounds, 0.61% hits; in the data active = inhibition mostly above about 24%, no sharp cut-off; inactive = mostly below about 32%
# Yeast UUG start: modulators of start codon recognition fidelity in yeast; AID 602363; hit rate 0.13% among 350,000; activity score, % at 18.7 µM; S. cerevisiae UUG-firefly luciferase reporter, luminescence/redox ratio;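 active = replicate mean at a twofold rise or more, about +100% in these data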;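 note: firefly luciferase made from a UUG start codon reports start codon fidelity; reporter light over untreated wells divided by growth signal over untreated wells; some hits fall short of that in this replicate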
# Numbers without * were called inactive; ? = inconclusive; · = no result. Rows were chosen to be rich in hits. Some 4.2% of all compounds tested hit in one or more screens of this group.
# Below each SMILES: HDAC3 inhib, MC4R antagonist, MC4R ag barr, ALR H2O2 inh, NALP1 inh, Yeast UUG start
1	Cc1ccc(S(=O)(=O)Nc2ccc3c(c2)C(=O)N([C@@H](C)CO)C[C@H](C)[C@H](CN(C)C(=O)CCC(F)(F)F)OCCCC[C@@H](C)O3)cc1
→ ·, ·, ·, ·, ·, -18.1
2	CCCn1ncc2c(Nc3ccc(C)c(C)c3)ncnc21
→ 5.5, 9.4, -2.0, 95.7*, 16.4, -16.7
3	Cn1ncc2c(Nc3ccc(Cl)c(Cl)c3)ncnc21
→ 5.5, 7.8, 1.7, ·, 6.8, -4.1
4	CC(C)NC(=O)N[C@H]1CC[C@H](CCNC(=O)C2CCC2)O[C@@H]1CO
→ ·, ·, ·, ·, ·, -7.3
5	Cc1ccccc1-c1nc(CS(=O)(=O)CC(=O)NCc2ccccc2)c(C)o1
→ 1.8, 16.3, 3.1, -5.8, 25.1, -5.7
6	Cc1oc(-c2ccccc2F)nc1CSCC(=O)NCc1ccc2c(c1)OCO2
→ -1.9, -0.8, -2.7, 97.9*, 10.1, -10.5
7	Cc1oc(-c2ccccc2F)nc1CS(=O)CC(=O)NCc1ccc(F)cc1 (stereo not given)
→ ·, -1.0, 1.8, 98.6*, 10.2, -6.1
8	Cc1oc(-c2ccccc2F)nc1CS(=O)CC(=O)NCc1ccccc1 (stereo not given)
→ 3.7, -6.6, -1.4, 97.1*, -7.0, ·
9	Cc1ccc(CNC(=O)CS(=O)(=O)Cc2nc(-c3ccccc3F)oc2C)cc1
→ ·, 17.0, 2.9, -9.8, 20.5, 15.7
10	Cc1ccc(CNC(=O)CS(=O)Cc2nc(-c3ccccc3F)oc2C)cc1 (stereo not given)
→ 1.3, 0.8, -1.9, 95.6*, 0.0, ·
11	C[C@@H](NC(=O)C[C@H]1C[C@H]2c3cc(NC(=O)CN(C)C)ccc3O[C@H]2[C@H](CO)O1)c1ccccc1
→ ·, ·, ·, ·, ·, -2.8
12	CCCn1c(SCC(=O)c2ccc3c(c2)NC(=O)CO3)nc2ccccc21
→ ?, 4.4, 2.0, 98.8*, 10.0, ·
13	Cn1c(SCC(=O)c2ccc3c(c2)NC(=O)CO3)nc2ccccc21
→ 4.4, 27.1, 14.4*, ·, 8.9, ·
14	O=C(C[C@@H]1CC[C@H](NC(=O)c2ccncc2)[C@H](CO)O1)Nc1ccccc1
→ ·, ·, ·, ·, ·, -20.2
15	CNCc1ccccc1Sc1cc(O)ccc1O
→ 2.1, 11.8, -2.3, 81.8*, 56.0*, ·
16	CN(C)Cc1ccccc1Sc1ccc(Br)cc1
→ -14.4, -4.8, 4.8, -9.5, 44.9, -8.1
17	CN(C)Cc1ccccc1Sc1ccc(O)cc1O
→ -1.8, -4.0, 1.1, 99.5*, 29.9, -3.3
18	O=C(O)c1cccc2c1-c1ccccc1/C2=N\Nc1ccccc1
→ 7.4, -0.7, -1.1, 99.1*, -1.9, -20.2
19	O=C(O)c1cccc(NN=C2c3ccccc3-c3ccccc32)c1
→ ·, 20.7, -1.5, ·, -1.3, ·
20	COc1cc(NC(=O)Cc2ccc(Cl)cc2)ccc1NC(=O)c1ccco1
→ 1.7, 19.1, 1.4, -1.3, 37.7*, -4.8

# Continued; it opens with the four that closed the last part.
# Below each SMILES: HDAC3 inhib, MC4R antagonist, MC4R ag barr, ALR H2O2 inh, NALP1 inh, Yeast UUG start
17	CN(C)Cc1ccccc1Sc1ccc(O)cc1O
→ -1.8, -4.0, 1.1, 99.5*, 29.9, -3.3
18	O=C(O)c1cccc2c1-c1ccccc1/C2=N\Nc1ccccc1
→ 7.4, -0.7, -1.1, 99.1*, -1.9, -20.2
19	O=C(O)c1cccc(NN=C2c3ccccc3-c3ccccc32)c1
→ ·, 20.7, -1.5, ·, -1.3, ·
20	COc1cc(NC(=O)Cc2ccc(Cl)cc2)ccc1NC(=O)c1ccco1
→ 1.7, 19.1, 1.4, -1.3, 37.7*, -4.8
21	C=CCn1c(SCC(=O)Nc2ccc(NC(=O)c3ccco3)c(OC)c2)nnc1-c1ccncc1
→ -0.4, 3.9, -1.1, 99.1*, 13.4, -17.9
22	CCC(=O)Nc1ccc(NC(=O)c2ccco2)c(OC)c1
→ -5.0, 7.7, -1.0, -9.7, 0.8, -9.3
23	COc1ccc(NC(=O)c2ccco2)cc1NC(=O)c1ccccc1F
→ 2.0, 2.9, 9.4*, -1.1, 11.4, -22.4
24	CCOc1ccc2oc(C(=O)Nc3ccc(N4CCOCC4)cc3)c(C)c2c1
→ 4.5, -9.6, 9.3*, -10.9, 22.3, -13.3
25	Cn1c(/C=C/c2cccc([N+](=O)[O-])c2)c([N+](=O)[O-])c(=O)n(C)c1=O
→ 0.6, -1.4, -1.8, 98.0*, 1.5, -24.1
26	CCCc1nn(C)c(C(=O)Nc2ccc3ccccc3c2)c1Cl
→ -1.3, 13.5, 9.4*, -7.6, 31.4, -15.6
27	CCOC(=O)c1c(-c2ccc(C)cc2)csc1NC(=O)CCN1CCOCC1
→ 5.4, 1.9, 0.9, 92.2*, 25.1, -3.7
28	CCOC(=O)c1c(-c2cccc(C)c2)csc1NC(=O)C1CC=CCC1C(=O)O (stereo not given)
→ 0.7, 2.6, -0.1, 98.1*, 27.6, ·
29	CCOC(=O)c1c(-c2ccc(C)cc2)csc1NC(=O)C1CC=CCC1C(=O)O (stereo not given)
→ -9.0, 1.2, 1.2, 12.7, 7.5, -5.6
30	CCOC(=O)c1c(-c2ccc(-c3ccccc3)cc2)csc1NC(=O)C1C2CCC(O2)C1C(=O)O (stereo not given)
→ 6.8, 10.4, 1.1, 96.4*, 7.4, -13.7
